Values quoted from earlier work as cited in PMC3623542.

Amino acid sequences for entries named in this document (tags omitted). Residues count along the entry.
UniProt P0A6Y8, 2-638: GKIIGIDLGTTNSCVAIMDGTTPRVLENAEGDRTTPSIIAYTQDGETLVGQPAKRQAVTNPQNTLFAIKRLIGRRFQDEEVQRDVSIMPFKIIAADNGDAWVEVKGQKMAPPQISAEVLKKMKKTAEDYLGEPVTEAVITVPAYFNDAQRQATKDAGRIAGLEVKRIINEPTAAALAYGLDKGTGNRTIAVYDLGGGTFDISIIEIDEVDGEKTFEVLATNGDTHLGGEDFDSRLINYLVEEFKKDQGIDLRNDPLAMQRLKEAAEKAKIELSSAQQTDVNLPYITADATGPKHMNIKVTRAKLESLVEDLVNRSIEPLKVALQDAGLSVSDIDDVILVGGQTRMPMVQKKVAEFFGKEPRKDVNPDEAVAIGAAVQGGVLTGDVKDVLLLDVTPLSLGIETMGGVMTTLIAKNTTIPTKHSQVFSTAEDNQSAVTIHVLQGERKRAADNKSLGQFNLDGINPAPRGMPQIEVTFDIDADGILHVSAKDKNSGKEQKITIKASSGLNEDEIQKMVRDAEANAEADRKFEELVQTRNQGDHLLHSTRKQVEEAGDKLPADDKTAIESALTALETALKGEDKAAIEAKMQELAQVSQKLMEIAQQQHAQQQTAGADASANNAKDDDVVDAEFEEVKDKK

Target: NRLLLTG peptide

Kd: 5 µM
Substance: DnaK (from UniProt P0A6Y8)
